Laboratory results as given in patent publication US20100124537A1, “MEDICAL APPLICATIONS OF ALPHA-KETOGLUTARATE” (priority 2007, published 2010).

Test system: H. pylori, strain 119/95
Conditions: animals inoculated with PBS and salts of alpha-ketoglutaric acid (Group II A)

In the case of `O=C(O)CCC(=O)C(=O)O` [AKG, alpha-ketoglutarate], the “H. pylori isolated from tissue” value is reported as “no isolated H. pylori”.
